“Also recorded” adds a separate entry of the source.
What was measured:
NACP/α-synuclein [1] = molecular target: T1, NACP/α-synuclein (Homo sapiens, UniProt P37840); experiment: His-tagged pull down in vitro binding assay; design: which encodes full length NACP/α-synuclein 140; 6xHis (cleaved yes); made in house; host or cells: E. coli; conditions: His-tagged β-synuclein 20 μM, 37° C., 8 hours, pH 6.9
Protocol: Samples containing 0–20 μM of NACP/α-synuclein are incubated at 37° C. for 8 hours in combination with or without His-tagged β-synuclein (20 μM) in a total volume of 20 μl at pH 6.9. At the completion of the first incubation period, Ni^2+ beads, equilibrated with buffer A (20 mM Tris-HCl, pH 8.5, 100 mM KCl, 2 mM imidazole, 10 mM 2-mercaptoethanol and 10% glycerol), are added to the samples and left to sit for one hour at 4° C. Following recovery of the beads by pulse centrifugation, the beads are washed three times with buffer A, once with buffer B (20 mM Tris-HCl, pH 8.5, 100 mM KCl, 20 mM imidazole, 10 mM 2-mercaptoethanol and 10% glycerol), and once again with buffer A. The beads are then boiled in SDS sample buffer, and subjected to 15% SDS-PAGE. NACP/α-synuclein is then visualized by the immunoblotting analysis described below.
NACP/α-synuclein-specific polyclonal antibody (anti-NACP101–124) is raised against the synthetic peptide ‘[…]’ (SEQ ID NO: 9) which is derived from residues 101–124 of NACP/α-synuclein. Immunoblotting analysis is performed as described above, the method of which is well known to those in the art. […]
The interaction of NACP/α-synuclein with β-synuclein was assessed using a His-tagged pull down assay. […]

NACP/α-synuclein [2] = molecular target: T1, NACP/α-synuclein; experiment: Co-incubation with NACP/α-synuclein at pH 6.9, 65° C.; aggregation assessed by immunoblotting; type: biochemical; design: which encodes full length NACP/α-synuclein 140; 6xHis (cleaved yes); made in house; host or cells: E. coli
Protocol: NACP/α-synuclein-specific polyclonal antibody (anti-NACP101–124) is raised against the synthetic peptide ‘[…]’ (SEQ ID NO: 9) which is derived from residues 101–124 of NACP/α-synuclein. Immunoblotting analysis is performed as described above, the method of which is well known to those in the art. Briefly, each sample is resolved by SDS-PAGE (15%) and blotted onto nitrocellulose membrane (Schleicher & Schuell, Keene, N.H.) using a standard transfer apparatus. The membrane is then blocked with TBS containing 3% BSA, followed by an incubation with anti-NACP101–124 (1:1000) in TBS containing 1% BSA. […]
The results from the His-tagged analysis led to the hypothesis that β-synuclein may modulate the aggregation of NACP/α-synuclein in vitro. […] The effect of β-synuclein on the aggregation of NACP/α-synuclein was assessed by immunoblotting analysis using anti-NAC101–124.
According to the time-course results, NACP/α-synuclein was gradually aggregated. The 18 kD monomer bands were decreased while the soluble aggregates that represent oligomers in the separating gel and the insoluble aggregates detected in the stacking gel were increased.
The dose-dependancy of β-synuclein in the inhibition of aggregation of NACP/α-synuclein was determined using proteins preparations at 20 hours incubation. […] The quantification of ratio of the aggregates versus the monomer was performed. […]

Substance: β-synuclein: human recombinant NACP/α-synuclein-related protein with a partially incomplete NAC domain; non-amyloidogenic
- binding of NACP/α-synuclein to His-tagged β-synuclein (pull down on Ni2+ beads) (NACP/α-synuclein [1]): detected as a 18 kD monomer band
- effect on aggregation of NACP/α-synuclein, time course, equimolar co-incubation (NACP/α-synuclein [2]; 20 μM NACP/α-synuclein plus 20 μM added protein): inhibited the aggregation of NACP/α-synuclein
- dose-dependency of inhibition of aggregation of NACP/α-synuclein (ratio of aggregates versus monomer) (NACP/α-synuclein [2]; 20 hours incubation, varied ratio to NACP/α-synuclein, n=3): significantly inhibited the aggregation; also recorded: dose-dependant inhibition

Reference: patent US7226746B1, “Method for screening for anti-amyloidogenic properties and method for treatment of neurodegenerative disease” (The Regents of the University of California, priority 1998, dated 2007)
